Measurements from PMC5294771, “Antidiabetic effects of Brucea javanica seeds in type 2 diabetic rats” (BMC Complementary and Alternative Medicine, 2017).

Biological target: T1, glycogen phosphorylase α (GP-α) (Oryctolagus cuniculus, UniProt P00489)
T1 sequence (P00489 2-843 limits assumed): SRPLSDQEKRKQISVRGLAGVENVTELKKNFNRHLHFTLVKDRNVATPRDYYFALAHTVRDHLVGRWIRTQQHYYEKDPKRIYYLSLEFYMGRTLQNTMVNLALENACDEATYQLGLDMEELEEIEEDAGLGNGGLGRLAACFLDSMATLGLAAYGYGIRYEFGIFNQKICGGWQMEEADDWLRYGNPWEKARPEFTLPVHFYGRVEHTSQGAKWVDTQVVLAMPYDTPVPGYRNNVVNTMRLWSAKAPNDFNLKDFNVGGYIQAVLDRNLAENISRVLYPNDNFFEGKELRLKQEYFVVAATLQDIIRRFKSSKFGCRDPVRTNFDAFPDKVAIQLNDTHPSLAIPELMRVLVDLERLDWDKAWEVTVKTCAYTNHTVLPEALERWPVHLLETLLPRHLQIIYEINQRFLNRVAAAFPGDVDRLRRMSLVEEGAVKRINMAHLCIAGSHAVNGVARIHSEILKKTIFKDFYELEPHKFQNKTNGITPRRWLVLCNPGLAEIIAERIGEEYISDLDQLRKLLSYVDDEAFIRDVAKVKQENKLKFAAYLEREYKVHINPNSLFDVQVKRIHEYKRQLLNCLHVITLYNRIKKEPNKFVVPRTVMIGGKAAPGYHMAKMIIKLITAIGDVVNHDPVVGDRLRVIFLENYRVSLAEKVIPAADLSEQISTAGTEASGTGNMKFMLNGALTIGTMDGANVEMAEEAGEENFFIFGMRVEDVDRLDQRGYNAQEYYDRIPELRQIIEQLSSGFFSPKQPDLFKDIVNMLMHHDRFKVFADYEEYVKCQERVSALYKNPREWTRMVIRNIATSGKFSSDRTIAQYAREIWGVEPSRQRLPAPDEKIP
Assay: GP-α inhibition assay
Assay type: biochemical
Conditions: at 5 mM

## CC1=CC(=O)[C@@H](O)[C@]2(C)[C@H]3[C@@H](O)[C@H](O)[C@]4(C)OC[C@@]35[C@@H](C[C@@H]12)OC(=O)[C@H](O)[C@]54O [Compound 2, bruceine D]
  inhibitory activity against GP-α: 19.88%
